Assay: Inhibition of [3H]- DPDPE binding to delta opioid receptor of guinea pig brain

## CC(NC(=O)[C@@H](N)Cc1ccc(O)cc1)C(=O)N[C@@H](Cc1ccccc1)C(=O)N[C@@H](CC(=O)O)C(=O)N[C@H](C(=O)N[C@H](C(=O)NCC(N)=O)C(C)C)C(C)C (single isomer, unassigned) [deltorphin C]
  Ki: 1.7 nM

Source: BindingDB's records for doi:10.1021/jm00007a020 (Eastern Michigan University, 1995)
